AlphaSeq binding of Ab-14 heavy chain variants to a spike HR2 peptide

Reference: Li et al. 2023, doi:10.1038/s41467-023-39022-2. File: FLAb, binding data.

Target peptide (SARS-CoV-2 spike, HR2 region): PDVDLGDISGINAS

Parent scFv Ab-14: VH joined to VL by three GGGGS repeats. Changes lie in the heavy chain CDRs alone.
VH: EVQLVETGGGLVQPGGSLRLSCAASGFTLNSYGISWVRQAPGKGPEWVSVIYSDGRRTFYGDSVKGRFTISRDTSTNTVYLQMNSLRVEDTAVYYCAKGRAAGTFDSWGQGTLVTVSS
VL: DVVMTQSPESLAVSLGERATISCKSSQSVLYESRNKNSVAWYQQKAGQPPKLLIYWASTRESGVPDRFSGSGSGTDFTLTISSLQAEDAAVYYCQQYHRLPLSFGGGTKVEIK

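Phage display of a naive human antibody library on the peptide gave the parent. Designed CDR sequences, proposed from the first random library and measured here. Group labels follow the data file (Ctrl: baseline library sampled from a position-specific scoring matrix, with some repeated check sequences; Rand: our label for a block that the file lists under HC and that is probably the random mutants of the ten best first-round binders; GP: Gaussian process model; GPLM: also part of the Gaussian process libraries; HC: hill climbing; Gen: genetic algorithm; Gibbs: Gibbs sampling; a sequence that several methods proposed may carry one label only). In AlphaSeq, yeast of one mating type display the scFv and yeast of the other type display the target. The frequency of each diploid, read from paired DNA barcodes, reflects how well the two displayed proteins bind. Each replicate has its own calibration line, from reference interactions of the BCL2 family. Mating was done six times.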

Positions count from residue 1 of the parent VH; G61D puts D in place of G. This list holds designs with at most six substitutions. Kd is apparent (estimated from mating counts) and averaged on the log scale over replicates with a signal. Smaller is tighter. An entry "nd" has no value in the source: the pair was not observed among the diploids in any replicate. This suggests poor binding but is not conclusive. The authors averaged sequences with at least three values out of six and counted those with two or fewer as poor binders.

Variant G61D/S63H/R100Q/A101L [GPLM_HC] gave 120 nM (2 of 6 replicates; controls 1 of 18). For T28D/S31T/G61A/A101T [GPLM_Gen], the assay gave 250 pM (6 of 6 replicates; controls 0 of 18). For N30D/G61S/R100E [GPLM_Gen], the assay gave 93 nM (1 of 6 replicates; controls 0 of 18). Variant T28G/S31E/G61M/A101F [GP_HC] showed 19 nM (6 of 6 replicates; controls 0 of 18). Variant A101E/F105N [Ctrl] gave nd (0 of 6 replicates; controls 0 of 18). Variant S63N/G99D/A101L [Ctrl] showed nd (0 of 6 replicates; controls 0 of 18).

Variant R100S/A102I/T104S [Ctrl] gave nd (0 of 6 replicates; controls 0 of 18). For S31E/G61S/T104F/D106S [GPLM_HC], the assay gave 8.7 nM (6 of 6 replicates; controls 1 of 18). For S31D/G103L/T104S/D106I [Rand], the assay gave nd (0 of 6 replicates; controls 0 of 18). Variant T28E/G61I/R100K/A101Q [GP_Gen] gave 6.0 nM (6 of 6 replicates; controls 1 of 18). Variant S31K/R56Q/G61E/A101I [Ctrl] gave 76 nM (3 of 6 replicates; controls 0 of 18). For S31E/G61T/A101Q [GPLM_HC], the assay gave 900 pM (6 of 6 replicates; controls 0 of 18).

Variant G26R/F59A/R100I/F105G [Ctrl] gave nd (0 of 6 replicates; controls 0 of 18). For T28S/R100N/A101T [GPLM_Gen], the assay gave 840 pM (6 of 6 replicates; controls 0 of 18). For T28E/S63P/A101T [GP_Gen], the assay gave 120 nM (4 of 6 replicates; controls 0 of 18). With R56V/G61S/R100Q/S107V [GP_Gibbs] the result was 3.6 nM (6 of 6 replicates; controls 0 of 18). For F27L/N30D/R57Y/F105A/D106L [Rand], the assay gave nd (0 of 6 replicates; controls 0 of 18). With F59H/G103K [Ctrl] the result was nd (0 of 6 replicates; controls 0 of 18).

Variant T28D/G61A/R100Q/A101E [GPLM_Gen] showed nd (0 of 6 replicates; controls 0 of 18). Variant T28V/G61T/A101T [GP_Gibbs] gave 48 nM (2 of 6 replicates; controls 0 of 18). Variant T28S/S63N/R100N/A101T [GPLM_Gibbs] gave 2.2 nM (6 of 6 replicates; controls 1 of 18). Variant T28D/S31M/R56M/A101T [GP_Gen] showed 1.2 nM (6 of 6 replicates; controls 2 of 18). With T28S/S53A/A101M [GPLM_Gen] the result was 250 pM (6 of 6 replicates; controls 0 of 18). Variant S31E/G61S/R100H/S107G [GP_HC] showed 6.4 nM (6 of 6 replicates; controls 0 of 18).

Variant G26M/T28D/G61I/R100Q [GP_Gen] gave 8.8 nM (1 of 6 replicates; controls 0 of 18). Variant N30L/R56I [Ctrl] gave nd (0 of 6 replicates; controls 0 of 18). Variant Y52K/D54S/G61D/R100Q/A101L [Rand] showed nd (0 of 6 replicates; controls 1 of 18). Variant T28H/G61V/R100K [GP_Gibbs] gave nd (0 of 6 replicates; controls 0 of 18). Variant T28S/R100K/A101T/S107V [GP_Gen] gave 29 nM (6 of 6 replicates; controls 0 of 18). Variant T28S/S31E/G103L/S107G [GP_HC] showed nd (0 of 6 replicates; controls 0 of 18).

For T28D/S31N/R100V [Ctrl], the assay gave 4.5 nM (6 of 6 replicates; controls 2 of 18). Variant F27K/S31E/S107L [GP_HC] gave nd (0 of 6 replicates; controls 0 of 18). Variant T28S/S53A/S107A [GP_Gen] showed 1.1 nM (6 of 6 replicates; controls 0 of 18). With S53R/G99D/A101V/D106E [Ctrl] the result was nd (0 of 6 replicates; controls 0 of 18). For G61D/S107D [Ctrl], the assay gave 87 nM (4 of 6 replicates; controls 0 of 18). For S31E/A101M/S107L [GP_HC], the assay gave nd (0 of 6 replicates; controls 0 of 18).

With I34R/A102D [Ctrl] the result was nd (0 of 6 replicates; controls 1 of 18). Variant T58V/G99R/R100D/A101P/F105D [Ctrl] showed nd (0 of 6 replicates; controls 0 of 18). Variant R56V/G61S/A102G/D106Y/S107A [Rand] showed nd (0 of 6 replicates; controls 0 of 18). Variant T28D/G61V/R100W [GP_Gen] gave 15 nM (6 of 6 replicates; controls 0 of 18). With T28S/A101T/S107N [GPLM_Gen] the result was 9.5 nM (6 of 6 replicates; controls 0 of 18). For T28K/A101T [Ctrl+GPLM_Gen], the assay gave 14 nM (4 of 12 replicates; controls 0 of 36).

With G61A/G103V/S107Q [GP_HC] the result was 5.4 nM (6 of 6 replicates; controls 0 of 18). With T28N/G61I/A101E/S107T [GP_Gen] the result was 3.6 nM (6 of 6 replicates; controls 1 of 18). With N30G/T58A [Ctrl] the result was nd (0 of 6 replicates; controls 0 of 18). With R56K/G61I/R100N [GPLM_Gen] the result was 5.3 nM (6 of 6 replicates; controls 0 of 18). With T28S/S31E/F59W/R100Q [GPLM_Gen] the result was 3.5 nM (6 of 6 replicates; controls 0 of 18). With S31D/F59Y/A101T [GP_HC] the result was 1.9 nM (6 of 6 replicates; controls 0 of 18).

With S31Q/G61K/T104F [Rand] the result was nd (0 of 6 replicates; controls 0 of 18).

From the list, the first 6 with no signal in any replicate:

changes	group	Kd (apparent)	seen in	signal with controls
A101E/F105N	Ctrl	nd	0 of 6	0 of 18
S63N/G99D/A101L	Ctrl	nd	0 of 6	0 of 18
R100S/A102I/T104S	Ctrl	nd	0 of 6	0 of 18
S31D/G103L/T104S/D106I	Rand	nd	0 of 6	0 of 18
G26R/F59A/R100I/F105G	Ctrl	nd	0 of 6	0 of 18
F27L/N30D/R57Y/F105A/D106L	Rand	nd	0 of 6	0 of 18

A sequence that the file lists under several names has all its replicates pooled. Three control strains display no target. For all heavy chain designs, 1% of the pairings with them gave a signal, with a median of 120 nM and one signal in twenty below 7.0 nM, so weak values seen in few replicates may be background. Also given: how often the same scFv was detected with the empty control strains. A sequence measured in both rounds can read differently, since the two assays cover different ranges.